Experimental data reported in patent US20030125311A1, “Compounds capable of binding with the cytoskeleton” (priority 2002, published 2003).

System: rat brain cytosol binding sites of pregnenolone
Experiment: Competition trials for PREG [3H] binding in brain cytosol

Substance: DHEA sulfate
- competition for the binding of PREG [3H] (in words): practically negligible effect
- R.C.R. 50 (relative competition index) (PREG = 100, 50% reduction of specific binding of 100 nM PREG [3H], mean±standard error, n=3): 0.045
